Experimental data from ChEMBL document CHEMBL3817737, “Structure-Based Identification of Novel Ligands Targeting Multiple Sites within a Chemokine-G-Protein-Coupled-Receptor Interface” (J Med Chem, 2016).
Calls of active or inactive are those of the source. No cut-off for these calls is given here.

By UniProt entry, the sequences of proteins in these tests, tags left out.
UniProt P48061, whole entry: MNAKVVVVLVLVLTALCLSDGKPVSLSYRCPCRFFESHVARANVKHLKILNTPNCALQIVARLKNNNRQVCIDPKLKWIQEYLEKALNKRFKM

Legend:
[1] = molecular target: T1, Stromal cell-derived factor 1 (Homo sapiens, UniProt P48061); experiment: Binding affinity to His6-SUMO fusion tagged wild type human [U-15N]CXCL12 expressed in Escherichia coli assessed as induction of chemical shift perturbations to residues at I4/I6 binding site by 2D 1H-15N HMQC NMR spectroscopy
[2] = molecular target: T1, Stromal cell-derived factor 1; experiment: Binding affinity to human [U-15N]CXCL12 L36C/A65C dimer mutant expressed in Escherichia coli assessed as induction of chemical shift perturbations at W57 residues by 2D 1H-15N SOFAST HMQC NMR spectroscopy

Activity [1]: 12.5%
Activity [2]: inactive
SMILES: CC(C)O.CCCOc1ccc(C(Nc2ccc(F)cc2)P(=O)(O)O)cc1 (configuration not stated)
